Reference: patent US20030203908A1, “Dihydrofolate reductase inhibitors” (priority 2000, published 2003)
Structures can show the parent of a compound that is named as a salt.

Protein sequences, listed by entry. Tags and fused reporters are not part of them. Residues count along the entry.
UniProt P13922, 10-228 R59C/N108S: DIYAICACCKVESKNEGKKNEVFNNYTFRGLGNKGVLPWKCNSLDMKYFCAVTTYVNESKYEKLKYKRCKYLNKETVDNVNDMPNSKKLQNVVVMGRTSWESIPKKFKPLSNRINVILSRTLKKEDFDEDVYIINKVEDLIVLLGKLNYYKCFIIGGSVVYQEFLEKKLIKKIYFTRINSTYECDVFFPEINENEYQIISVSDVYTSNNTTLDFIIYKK

Target: T1, wild-type (wt) DHFR from Plasmodium falciparum (Plasmodium falciparum, UniProt P13922, N108S/R59C)
T1 construct: The Dihydrofolate Reductase Domain of Plasmodium falciparum Thymidylate Synthase-Dihydrofolate Reductase; made in house
Test: Inhibition of wild-type pfDHFR (spectrophotometric, Ki);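 further: Affinity-purified enzyme, initial reaction rates measured across a range of inhibitor concentrations, Ki obtained by nonlinear least-squares fitting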
Type: biochemical
Conditions: Ki(wt) nM

NC1=NC(c2ccccc2)N(c2ccc(Cl)cc2)C(N)=N1 (centres unmarked) [(Ia) R2=phenyl, 1-(4′-Chlorophenyl)-2-phenyl-4,6-diamino-1,2-dihydro-1,3,5-triazine hydrochloride]
Ki: 4.5 ± 0.2 nM

CCCOc1ccc(C2N=C(N)N=C(N)N2c2cccc(Cl)c2)cc1 (centres unmarked) [(Ib) R2=4-(n-propyloxy)phenyl]
Ki: 3.3 ± 0.4 nM
